The results in this text go back to ChEMBL document CHEMBL5126625, “Discovery of AZD4831, a Mechanism-Based Irreversible Inhibitor of Myeloperoxidase, As a Potential Treatment for Heart Failure with Preserved Ejection Fraction” (J Med Chem, 2022).

For assay [1], the target named is T1, Myeloperoxidase (Homo sapiens, UniProt P05164).
T1 sequence (P05164 whole entry): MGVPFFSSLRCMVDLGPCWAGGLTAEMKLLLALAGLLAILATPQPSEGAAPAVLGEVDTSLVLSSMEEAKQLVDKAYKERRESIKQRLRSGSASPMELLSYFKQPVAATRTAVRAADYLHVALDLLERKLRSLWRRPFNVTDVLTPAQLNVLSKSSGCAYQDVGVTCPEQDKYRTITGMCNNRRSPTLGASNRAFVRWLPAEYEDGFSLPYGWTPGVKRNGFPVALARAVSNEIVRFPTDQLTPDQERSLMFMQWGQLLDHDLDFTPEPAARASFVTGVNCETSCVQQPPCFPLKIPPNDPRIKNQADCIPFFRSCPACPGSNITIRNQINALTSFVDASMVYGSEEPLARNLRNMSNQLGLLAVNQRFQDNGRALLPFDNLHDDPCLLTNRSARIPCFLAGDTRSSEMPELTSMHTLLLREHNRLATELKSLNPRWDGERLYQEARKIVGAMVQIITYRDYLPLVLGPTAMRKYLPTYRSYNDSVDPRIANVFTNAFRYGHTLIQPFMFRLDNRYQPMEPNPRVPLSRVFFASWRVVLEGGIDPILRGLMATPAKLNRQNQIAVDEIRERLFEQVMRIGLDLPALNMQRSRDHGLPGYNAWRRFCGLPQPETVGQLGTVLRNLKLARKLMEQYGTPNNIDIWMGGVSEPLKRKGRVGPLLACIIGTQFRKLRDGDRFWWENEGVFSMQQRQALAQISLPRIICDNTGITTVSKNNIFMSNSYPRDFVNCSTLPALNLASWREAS
As to the kind of experiment: Inhibition of MPO in human HL-60 cells measured after 15 mins in presence of H2O2 by chemiluminescence assay. Type of assay: cell-based.

In assay [2] the target is T1, Myeloperoxidase. The experiment in a line: Inhibition of MPO (unknown origin) measured after 15 mins in presence of H2O2 by chemiluminescence assay.

For the molecule `C[C@@H](N)c1cc(Cl)ccc1Cn1c(=S)[nH]c(=O)c2[nH]cnc21`, the IC50 was 3100 nM on Myeloperoxidase [1] and 3.6 nM on Myeloperoxidase [2] (read-out: IC50).

Turning to `NCc1cc(Cl)ccc1Cn1c(=S)[nH]c(=O)c2[nH]ccc21`, the IC50 was 11000 nM on Myeloperoxidase [1] and 15.8 nM on Myeloperoxidase [2] (read-out: pIC50 (converted)).

Regarding `COc1ccc(Cl)cc1-c1cc(=O)[nH]c(=S)n1CC(N)=O` [PF-06282999], the IC50 on Myeloperoxidase [2] (read-out: IC50) stood at 187 nM.
